Consider 15 molecules from patent publication US20230157952A1, “METHOD FOR IMPROVING THE STABILITY OF A PHARMACEUTICAL COMPOSITION COMPRISING A HIGH PENETRATION DRUG, AND THE PHARMACEUTICAL COMPOSITION OBTAINED THEREFROM” (Techfields Inc., priority 2020, published 2023).

What all share (type): physicochemical
The nature of data set [1]: Stability of the pure HPDs (dry solid) at 25° C./RH 60%. To be noted: for Purity: pure HPD, 25° C./RH 60%.
Data set [2] is described as follows: Effect of temperature (and pH) on the stability of the solution (purity). From the text:
The results are illustrated in the following.

Data set [3] in a line: Effect of pH value on the stability of the solution (purity).

`CCN(CC)CCOC(=O)[C@@H](C)c1ccc2cc(OC)ccc2c1.Cl` [A-1-2, 2-(diethylamino)ethyl (S)-2-(6-methoxy-2-naphthyl) propionate•HCl salt]: the Purity in data set [1] (3 month) is given as 98.5 ± 0.3; in data set [1] (6 month), 98.4 ± 0.2; in data set [1] (12 month) it was 98.3 ± 0.2; in data set [1] (18 month) it was 98.2 ± 0.2.

Take `CCN(CC)CCOC(=O)C(C)c1ccc(CC(C)C)cc1.Cl` (racemic): the “Purity(%) at day 0” value turned out to be 98.0 ± 0.4% in data set [2] (pH 1.02, 7% solution in water); 98.2 ± 0.4% in data set [2] (pH 2.09, 7% solution in water); 98.5 ± 0.3% in data set [2] (pH 3.00, 7% solution in water); 98.5 ± 0.2% in data set [2] (pH 3.68, 7% solution in water); 98.6 ± 0.3% in data set [2] (pH 4.07, 7% solution in water); 98.6 ± 0.2% in data set [2] (pH 4.35, 7% solution in water). For the same molecule, the “Purity(%) at day 0” value came to 98.5 ± 0.1% in data set [2] (pH 4.67, 7% solution in water); 98.5 ± 0.3% in data set [2] (pH 4.95, 7% solution in water); 98.4 ± 0.3% in data set [2] (pH 5.98, 7% solution in water); 98.3 ± 0.4% in data set [2] (pH 6.98, 7% solution in water); 98.0 ± 0.4% in data set [2] (pH 8.01, 7% solution in water). The “Purity(%) at day 21 (5° C.)” value in data set [2] (pH 3.00, 7% solution in water) is reported as 98.0 ± 0.4%; in data set [2] (pH 3.68, 7% solution in water) it was 98.4 ± 0.3%; in data set [2] (pH 4.07, 7% solution in water) it was 98.5 ± 0.3%; in data set [2] (pH 4.35, 7% solution in water), 98.6 ± 0.4%; in data set [2] (pH 4.67, 7% solution in water) it was 98.5 ± 0.4%. Besides, the “Purity(%) at day 21 (25° C.)” value came to 98.1 ± 0.4% in data set [2] (pH 3.68, 7% solution in water); 98.2 ± 0.2% in data set [2] (pH 4.07, 7% solution in water); 98.2 ± 0.3% in data set [2] (pH 4.35, 7% solution in water); 98.1 ± 0.4% in data set [2] (pH 4.67, 7% solution in water).

For the molecule `CCN(CC)CCOC(=O)C(C)c1ccc(-c2ccccc2)c(F)c1.Cl` (centres unmarked) [B-1-1, 2-(diethylamino)ethyl 2-(2-fluoro-4-biphenyl)propionate•HCl salt], the Purity in data set [1] (3 month) worked out at 98.4 ± 0.1; in data set [1] (12 month) it was 98.2 ± 0.1; in data set [1] (Day 0) it was 98.5 ± 0.2.

On to `CCN(CC)CCOC(=O)[C@@H](C)c1ccc(CC(C)C)cc1.Cl` [C-1-2, 2-(diethylamino)ethyl (S)-2-(p-isobutylphenyl)propionate•HCl salt], for which the Purity in data set [1] (3 month) was 98.5 ± 0.3; in data set [1] (6 month), 98.4 ± 0.4; in data set [1] (9 month), 98.5 ± 0.3; in data set [1] (12 month) it was 98.3 ± 0.4; in data set [1] (18 month), 98.2 ± 0.1; in data set [1] (Day 0), 98.5 ± 0.1.

On to `CCN(CC)CCOC(=O)[C@H](C)c1ccc(CC(C)C)cc1.Cl`, for which the “Purity(%) at day 0” value was 97.8 ± 0.4% in data set [2] (pH 1.02, 7% solution in water); 98.0 ± 0.4% in data set [2] (pH 2.09, 7% solution in water); 98.1 ± 0.3% in data set [2] (pH 3.01, 7% solution in water); 98.2 ± 0.2% in data set [2] (pH 3.68, 7% solution in water); 98.2 ± 0.3% in data set [2] (pH 4.07, 7% solution in water); 98.3 ± 0.2% in data set [2] (pH 4.35, 7% solution in water). For the same molecule, the “Purity(%) at day 0” value in data set [2] (pH 4.67, 7% solution in water) turned out to be 98.2 ± 0.3%; in data set [2] (pH 4.96, 7% solution in water), 98.1 ± 0.3%; in data set [2] (pH 5.98, 7% solution in water), 98.0 ± 0.4%; in data set [2] (pH 6.99, 7% solution in water), 97.9 ± 0.4%. In addition, the “Purity(%) at day 21 (5° C.)” value in data set [2] (pH 3.01, 7% solution in water) came out at 97.8 ± 0.4%; in data set [2] (pH 3.68, 7% solution in water), 98.1 ± 0.3%; in data set [2] (pH 4.07, 7% solution in water), 98.0 ± 0.4%; in data set [2] (pH 4.35, 7% solution in water), 98.1 ± 0.4%; in data set [2] (pH 4.67, 7% solution in water), 98.1 ± 0.2%. Further, the “Purity(%) at day 21 (25° C.)” value in data set [2] (pH 3.68, 7% solution in water) came out at 97.7 ± 0.3%; in data set [2] (pH 4.07, 7% solution in water), 97.8 ± 0.4%; in data set [2] (pH 4.35, 7% solution in water), 97.8 ± 0.3%.

With `CCN(CC)CCOC(=O)[C@@H](C)c1ccc(-c2ccccc2)c(F)c1.Cl` [B-1-2, 2-(diethylamino)ethyl (S)-2-(2-fluoro-4-biphenyl)propionate•HCl salt], the Purity in data set [1] (6 month) worked out at 98.5 ± 0.2; in data set [1] (12 month) it was 98.4 ± 0.2; in data set [1] (18 month) it was 98.3 ± 0.1; in data set [1] (24 month) it was 98.2 ± 0.1.

Consider `CCN(CC)CCOC(=O)C(C)c1ccc(-c2ccccc2)c(F)c1.Cl` (racemic), for which the “Purity(%) at day 0” value is recorded as 98.2 ± 0.3% in data set [2] (7% solution in water, pH 1.0, day 0); 98.3 ± 0.3% in data set [2] (7% solution in water, pH 2.0, day 0); 98.4 ± 0.2% in data set [2] (7% solution in water, pH 3.0, day 0); 98.5 ± 0.3% in data set [2] (7% solution in water, pH 3.7, day 0); 98.5 ± 0.2% in data set [2] (7% solution in water, pH 4.0, day 0); 98.5 ± 0.3% in data set [2] (7% solution in water, pH 4.3, day 0). Further, the “Purity(%) at day 0” value was 98.4 ± 0.2% in data set [2] (7% solution in water, pH 4.6, day 0); 98.5 ± 0.3% in data set [2] (7% solution in water, pH 5.0, day 0); 98.3 ± 0.3% in data set [2] (7% solution in water, pH 6.0, day 0); 98.1 ± 0.4% in data set [2] (7% solution in water, pH 7.0, day 0); 98.0 ± 0.4% in data set [2] (7% solution in water, pH 8.0, day 0). Also, the “Purity(%) at day 21 (5° C.)” value came to 97.8 ± 0.2% in data set [2] (7% solution in water, pH 2.0, day 21, 5° C.); 98.0 ± 0.2% in data set [2] (7% solution in water, pH 3.0, day 21, 5° C.); 98.2 ± 0.1% in data set [2] (7% solution in water, pH 3.7, day 21, 5° C.); 98.3 ± 0.1% in data set [2] (7% solution in water, pH 4.0, day 21, 5° C.); 98.3 ± 0.1% in data set [2] (7% solution in water, pH 4.3, day 21, 5° C.); 98.3 ± 0.1% in data set [2] (7% solution in water, pH 4.6, day 21, 5° C.). Moreover, the “Purity(%) at day 21 (25° C.)” value in data set [2] (7% solution in water, pH 4.0, day 21, 25° C.) is given as 97.7 ± 0.2%; in data set [2] (7% solution in water, pH 4.3, day 21, 25° C.), 97.8 ± 0.1%; in data set [2] (7% solution in water, pH 4.6, day 21, 25° C.) it was 97.7 ± 0.1%.

For `CCN(CC)CCOC(=O)[C@H](C)c1ccc(-c2ccccc2)c(F)c1.Cl` [B-1-3, 2-(diethylamino)ethyl (R)-2-(2-fluoro-4-biphenyl)propionate•HCl salt], the Purity in data set [1] (3 month) worked out at 98.3 ± 0.1; in data set [1] (6 month) it was 98.3 ± 0.1; in data set [1] (12 month), 98.2 ± 0.1; in data set [1] (Day 0), 98.4 ± 0.1.

With “H-Tyr-Gly-Gly-Phe-Leu-OCH(CH3)2.HCl [U-1]”, the Purity in data set [1] (3 month) stood at 98.5 ± 0.2; in data set [1] (6 month), 98.4 ± 0.2; in data set [1] (9 month), 98.3 ± 0.2; in data set [1] (12 month), 98.2 ± 0.3; in data set [1] (18 month), 98.2 ± 0.3; in data set [1] (24 month) it was 98.0 ± 0.2. This molecule also yielded a Purity in data set [1] (Day 0) of 98.5 ± 0.2. Moreover, in data set [1] (room temperature (25° C./RH 60%)), the “Stability of the pure powder” value is “very stable”.

Consider `Br.CCN(CC)CCOC(=O)[C@H](C)c1ccc(CC(C)C)cc1` (racemic) [C-1-4, 2-(diethylamino)ethyl (R,S)-2-(p-isobutylphenyl)propionate•HBr salt], for which the Purity is listed as 98.4 ± 0.1 in data set [1] (3 month); 98.5 ± 0.3 in data set [1] (6 month); 98.3 ± 0.1 in data set [1] (9 month); 98.3 ± 0.3 in data set [1] (12 month); 98.2 ± 0.4 in data set [1] (18 month); 98.5 ± 0.2 in data set [1] (Day 0).

For the molecule `CCN(CC)CCOC(=O)[C@H](C)c1ccc2cc(OC)ccc2c1.Cl` (racemic) [A-1-3, 2-(diethylamino)ethyl (R)-2-(6-methoxy-2-naphthyl) propionate•HCl salt], the Purity in data set [1] (3 month) turned out to be 98.4 ± 0.2; in data set [1] (6 month), 98.5 ± 0.2; in data set [1] (12 month), 98.2 ± 0.1; in data set [1] (Day 0) it was 98.5 ± 0.2.

As for H-Tyr-Gly-Gly-Phe-Leu-OCH2CH3.HCl, in data set [3] (5% solution in 25% ethanol at 25° C.), the “pH at which the solution is stable” value is listed as 3-6. In addition, in data set [3] (5% solution in 25% ethanol, pH 3-6), the “Time the solution can be stored at room temperature” value is listed as “about 3 months”.

On to `Br.CCN(CC)CCOC(=O)C(C)c1ccc(-c2ccccc2)c(F)c1` (centres unmarked) [B-1-4, 2-(diethylamino)ethyl 2-(2-fluoro-4-biphenyl)propionate•HBr salt], for which the Purity in data set [1] (3 month) is 98.5 ± 0.1; in data set [1] (6 month), 98.4 ± 0.1; in data set [1] (12 month), 98.3 ± 0.1.

As for `CCN(CC)CCOC(=O)[C@H](C)c1ccc(CC(C)C)cc1.Cl` [C-1-3, 2-(diethylamino)ethyl (R)-2-(p-isobutylphenyl)propionate•HCl salt], the figures for the Purity in data set [1] (3 month) and in data set [1] (Day 0) were 98.2 ± 0.2 and 98.2 ± 0.1, respectively.

In the case of `CCN(CC)CCOC(=O)[C@H](C)c1ccc2cc(OC)ccc2c1.Cl` (racemic), the “Purity(%) at day 0” value came out at 98.6 ± 0.2% in data set [2] (pH 1.02, 7% solution in water); 98.6 ± 0.3% in data set [2] (pH 2.09, 7% solution in water); 98.7 ± 0.2% in data set [2] (pH 3.00, 7% solution in water); 98.8 ± 0.3% in data set [2] (pH 3.68, 7% solution in water); 98.7 ± 0.4% in data set [2] (pH 4.07, 7% solution in water); 98.8 ± 0.3% in data set [2] (pH 4.35, 7% solution in water). Further, the “Purity(%) at day 0” value came out at 98.8 ± 0.3% in data set [2] (pH 4.67, 7% solution in water); 98.7 ± 0.2% in data set [2] (pH 4.95, 7% solution in water); 98.8 ± 0.3% in data set [2] (pH 5.98, 7% solution in water); 98.3 ± 0.3% in data set [2] (pH 8.01, 7% solution in water). The “Purity(%) at day 21 (5° C.)” value in data set [2] (pH 2.09, 7% solution in water) was 98.1 ± 0.2%; in data set [2] (pH 3.00, 7% solution in water), 98.4 ± 0.2%; in data set [2] (pH 3.68, 7% solution in water), 98.6 ± 0.1%; in data set [2] (pH 4.07, 7% solution in water), 98.7 ± 0.1%; in data set [2] (pH 4.35, 7% solution in water) it was 98.7 ± 0.1%; in data set [2] (pH 4.67, 7% solution in water), 98.7 ± 0.1%. Besides, in data set [2] (pH 4.95, 7% solution in water), the “Purity(%) at day 21 (5° C.)” value was 97.9 ± 0.2%. The “Purity(%) at day 21 (25° C.)” value in data set [2] (pH 3.68, 7% solution in water) was 98.0 ± 0.1%; in data set [2] (pH 4.07, 7% solution in water) it was 98.3 ± 0.2%; in data set [2] (pH 4.35, 7% solution in water), 98.2 ± 0.1%; in data set [2] (pH 4.67, 7% solution in water), 98.2 ± 0.2%.
